Screens (PubChem)
This is a sample that favours compounds with a hit; in the whole collection about 16% have one here.
uPA generation = inhibitors of cell surface uPA generation; cell surface uPA generation assay, qHTS; Potency, µM (top dose mostly 38.3 µM), hits mostly inhibitors; 330,000 tested, 0.31% active; AID 540303; active = well fitted inhibition curve with a large enough effect; inconclusive = small, poorly fitted or top-dose-only effect; inactive = no such curve, though single readings can be large or run the other way; tested in mouse RAW 264.7 cells; note: nearly all actives have a fitted effect of over 55% in size
TDP1 inh = blocks human tyrosyl-DNA phosphodiesterase 1 | Q9NUW8 | recombinant TDP1, AlphaScreen DNA substrate cleavage | Potency, µM (highest dose often 130 µM), hits mostly inhibitors | 350,000 tested, 0.28% active; note: nearly all actives have a fitted effect of over 40% in size
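Here, a 5' biotin and 3' phosphotyrosine-FITC DNA oligonucleotide reports Tdp1 activity: intact substrate bridges AlphaScreen beads, while cleavage leaves a 3' phosphate and drops signal. All incubations at room temperature.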
TDP1 cell CPT = growth inhibition of DT40 Tdp1-/-;hTDP1 cells with camptothecin (screen for TDP1 inhibitors). Potency, µM (top dose mostly 46.2 µM), actives largely listed as inhibitors. 420,000 tested, 12% active. chicken DT40 Tdp1-/-;hTDP1 cells + 20 nM CPT, ATP luminescence, 48 h. AID 686979; note: nearly all actives have a fitted effect of over 55% in size
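Chicken DT40 Tdp1-/- cells complemented with human TDP1, 400 cells/well, exposed to compounds plus 20 nM camptothecin for at least 48 h at 37 C; viability read as ATP content by CellTiter-Glo luminescence.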
TDP1 cell noCPT = qHTS for Inhibitors of human tyrosyl-DNA phosphodiesterase 1 (TDP1): qHTS in cells in absence of CPT. Potency, µM (titrated, usually from 46.2 µM), hits mostly inhibitors. DT40 Tdp1-/- hTDP1 cells, no CPT, ATP luminescence, 48 h. 420,000 tested, 15% active; note: nearly all actives have a fitted effect of over 55% in size
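Growth kinetics read by CellTiter-Glo luminescence after ≥48 hr at 37 °C. Cells: DT40 Tdp1-/- stably carrying human TDP1, 400 per well, compound exposure in the absence of CPT (DMSO vehicle).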
miR-21 reporter = miR-21 reporter, rising signal. 340,000 tested, under 10 active. Potency, µM (highest dose often 38.3 µM). HeLa miR-21 FLuc reporter, luciferase, 48 h. AID 2288; active = well fitted rising curve with a large enough effect; inconclusive = small, poorly fitted or top-dose-only effect; inactive = no such curve, though single readings can be large or run the other way;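 further: miR-21 action dims this reporter so a rising signal means less miR-21 action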
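HeLa cells stably expressing CMV-driven firefly luciferase with a downstream miR-21 binding sequence, endogenously expressing miR-21, were treated with titrations (up to about 40uM final) for 48 hours at 37 degree Celsius. Luciferase luminescence was read after lysis.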
Each line names hits and unclear results; the compound was inactive in the other large screens. Unless noted, calls come from the whole dose curve; as a rule, active = well fitted curve in the direction sought with a large enough effect; inconclusive = small, poorly fitted or top-dose-only effect, or another doubt; inactive = no such curve, though single readings can be large; an effect the other way counts as inactive or inconclusive.

O=C1N(c2ccccc2)C[C@@H]2C[C@@H](c3cc4ccccc4o3)N3CCC[C@@]123	TDP1 cell noCPT 23.1µM
COc1cc(C2C(C#N)=C(N)Oc3c2ccc2ccccc32)ccc1OCC(=O)Nc1cccc(C)c1 (configuration not stated)	TDP1 cell CPT inconclusive, TDP1 cell noCPT 16.4µM
COc1cc(C2C(C#N)=C(N)Oc3c2ccc2ccccc32)ccc1OCC(=O)Nc1ccc(C)cc1 (configuration not stated)	TDP1 cell CPT inconclusive, TDP1 cell noCPT inconclusive
COc1ccc(C2C(C#N)=C(N)Oc3c2ccc2cccnc32)cc1OC (configuration not stated)	TDP1 cell CPT 3.26µM, TDP1 cell noCPT 2.59µM
COc1cc(/C=C/CO)cc(OC)c1OC/C=C(\C)CCC=C(C)C	TDP1 cell CPT inconclusive, TDP1 cell noCPT inconclusive (no result: TDP1 inh)
Cc1ccc(OCC(=O)Nc2cc(C(C)(C)C)on2)cc1C	none
CC1CCN(S(=O)(=O)c2csc(C(=O)Nc3ccccc3)c2)CC1	TDP1 cell noCPT inconclusive
Cc1cccc(N2CCN(C(=O)CCCn3c(=O)[nH]c4ccsc4c3=O)CC2)c1C	TDP1 cell CPT 20.6µM, TDP1 cell noCPT inconclusive, miR-21 reporter inconclusive (no result: uPA generation)
COC(=O)c1ccc2c(=O)n(CCCCCC(=O)N3CCN(c4cccc(C)c4C)CC3)c(=O)[nH]c2c1	TDP1 cell CPT inconclusive, TDP1 cell noCPT inconclusive (no result: uPA generation)
CC(=O)c1ccc(N2CCN(C(=O)CCCCn3c(=O)[nH]c4ccsc4c3=O)CC2)cc1	TDP1 cell CPT 13µM, TDP1 cell noCPT 23.1µM (no result: uPA generation)
CCCCC(CC)CNC(=O)CCCCCn1c(=O)[nH]c2ccsc2c1=O (configuration not stated)	TDP1 cell CPT inconclusive, TDP1 cell noCPT 23.1µM (no result: uPA generation)
O=C(CCn1c(=O)[nH]c2ccsc2c1=O)N1CCN(c2cccc(Cl)c2)CC1	TDP1 cell noCPT inconclusive
O=C(CCCCn1c(=O)[nH]c2ccsc2c1=O)N1CCN(c2cccc(Cl)c2)CC1	TDP1 cell CPT 16.4µM, TDP1 cell noCPT 13µM, miR-21 reporter inconclusive (no result: uPA generation)
COc1cccc(NC(=O)CSc2nnnn2C2CCCC2)c1	none (no result: TDP1 inh)
O=C1CC(c2cccc(O)c2)Oc2ccccc21 (configuration not stated)	TDP1 cell CPT inconclusive, TDP1 cell noCPT inconclusive (no result: miR-21 reporter)
CC(=O)c1ccc(N2CCN(C(=O)CCCc3nc4ccccc4s3)CC2)cc1	TDP1 cell CPT 11.6µM, TDP1 cell noCPT 10.3µM
O=C(CCn1c(=O)[nH]c2ccsc2c1=O)N1CCN(c2ccc([N+](=O)[O-])cc2)CC1	TDP1 cell CPT 16.4µM, TDP1 cell noCPT inconclusive
O=C(CCc1nc2ccccc2s1)N1CCN(c2ccccc2)CC1	TDP1 cell noCPT inconclusive
O=C(Cn1c(=O)[nH]c2ccsc2c1=O)N1CCN(c2ccc(F)cc2)CC1	TDP1 cell noCPT inconclusive
O=C1c2cccc3cccc(c23)C(=O)N1CC1CCN(S(=O)(=O)c2ccccc2)CC1	none (no result: TDP1 inh, miR-21 reporter)
O=C1c2cccc3cccc(c23)C(=O)N1CC1CCN(S(=O)(=O)c2ccc(F)cc2)CC1	TDP1 cell CPT inconclusive, TDP1 cell noCPT 11.6µM
O=C(c1ccc(S(=O)(=O)N2CCCCCC2)cc1)N1CCC(CN2C(=O)c3cccc4cccc(c34)C2=O)CC1	TDP1 cell CPT inconclusive, TDP1 cell noCPT 20.6µM
Cc1ccc(S(=O)(=O)N2CCC(CN3C(=O)c4cccc5cccc(c45)C3=O)CC2)cc1	TDP1 cell CPT inconclusive, TDP1 cell noCPT inconclusive
COc1ccc(CNC(=O)C(C)Sc2nc3ccccc3c(=O)n2CC2CCCO2)cc1 (configuration not stated)	none (no result: miR-21 reporter)
O=C(Nc1cccc2ccccc12)OC1C=CS(=O)(=O)C1 (configuration not stated)	TDP1 cell CPT inconclusive, TDP1 cell noCPT 20.6µM
O=C(Nc1cccc2ccccc12)C1CCCC1	none (no result: TDP1 inh)
COc1ccc(-c2csc(NC(=O)c3ccccc3Br)c2C(=O)O)cc1	none (no result: TDP1 inh)
O=C(Nc1scc(-c2ccccc2)c1C(=O)O)c1ccccc1F	none (no result: TDP1 inh)
Cc1ccc(-c2csc(NC(=O)c3ccccc3F)c2C(=O)O)cc1	TDP1 cell CPT inconclusive, TDP1 cell noCPT 20.6µM (no result: TDP1 inh)
COc1ccc(-c2csc(NC(=O)c3ccc(C(C)(C)C)cc3)c2C(=O)O)cc1	TDP1 cell CPT 3.66µM, TDP1 cell noCPT 3.26µM (no result: TDP1 inh, miR-21 reporter)
